One series has as its system Vero cells. The series can be described thus: Vero cell viability, cell-titer-glo assay. It is filed as cell-based. Particulars: increasing concentrations.
The subject of series [1] is Vero cells, primary astrocytes, primary pericytes.
Another series relates to TMPRSS2. The series can be described thus: TMPRSS2 inhibition.
The test system of series [2] is mice, OVA-induced allergic inflammation. Briefly: Ovalbumin mouse model of allergic asthma. Particulars: single dose.
Series [3] deals with adult dorsal root ganglion (DRG) neurons. The series can be described thus: Trypan blue survivability assay of DRG neurons. The settings on record: 100 ng/ml, 96 hours, vs 1% FBS control, NT-3 positive control.
The test system of series [4] is mouse macrophages (J774A.1). The series can be described thus: Inflammasome mediated IL-1β release after GP96 and ATP. The settings on record: GP96 (priming) and ATP stimulation.
For series [5], the system named is Klebsiella pneumonia (KP).

“Also recorded” adds a separate entry of the source.

Turning to `CCCC[C@H](NC(=O)[C@H](CC(C)C)NC(=O)[C@H](Cc1ccccc1)NC(=O)[C@@H](NC(=O)[C@H](Cc1ccccc1)NC(=O)[C@@H]1CCCN1C(=O)[C@H](CCCCN)NC(=O)[C@H](CC(N)=O)NC(=O)[C@H](Cc1ccccc1)NC(=O)[C@H](CCCCN)NC(=O)[C@@H](NC(C)=O)C(C)C)C(C)C)C(=O)N[C@H](C(=O)N[C@@H](CCC(=O)O)C(=O)N[C@@H](CCC(N)=O)C(=O)N[C@@H](CC(N)=O)C(=O)N[C@H](C(=O)N[C@@H](CCCCN)C(N)=O)[C@@H](C)O)[C@@H](C)CC` [VKFNKPFVFL[Nle]IEQNTK], in the series with Vero cells, the “viability of Vero cells” value is listed as “increased the viability”. Besides, the toxicity to cells entry in series [1] was “non-toxic to these cells at up to 100 μg/ml”. Also, in the series on TMPRSS2, the “IC50 against TMPRSS2” value worked out at 1125 ng/m L. The “serum CCL11” value in series [2] is “reduced serum CCL11”. Further, the survivability of neurons result in series [3] was “robustly promoted neuronal survival; also recorded: increased survivability of the neurons compared to vehicle control and even greater than neurotrophic factor-3 (NT-3)”. For the same compound, the “inflammasome mediated IL-1β release” value in series [4] is recorded as “reduced inflammasome mediated IL-1β release”. Further, in series [5] (12 mg/kg daily (13 doses total) after intranasal 600 CFU KP (LD100), 14 days, p<0.02), the “benefit in survival vs. vehicle control” value came to 40%. The weight loss result in series [5] (12 mg/kg daily after KP exposure) is “decrease in weight loss was also observed”.
